Biological target: ORL-1 receptor (Rattus norvegicus, UniProt P35370)
Experiment: ORL-1 receptor binding test ([3H]-nociceptin)
Conditions: receptor prepared from cerebral cortex of rat

CNC(=O)Cn1c(=O)n(C2CCN([C@@H]3Cc4cccc5cccc3c45)CC2)c2ccccc21
IC50 (read-out: IC50 value, inhibition of the binding of [3H]-nociceptin, 25° C., 20 minutes): 4.4 nM
Ki (read-out: Ki value, inhibition of the binding of [3H]-nociceptin, Ki=IC50/(1+L/Kd)): 0.51 nM
